By UniProt entry, the sequences of proteins in these tests, tags left out. Where a name states a change or a piece, a line headed by the entry shows the natural chain unless it says otherwise.
UniProt Q9Y572: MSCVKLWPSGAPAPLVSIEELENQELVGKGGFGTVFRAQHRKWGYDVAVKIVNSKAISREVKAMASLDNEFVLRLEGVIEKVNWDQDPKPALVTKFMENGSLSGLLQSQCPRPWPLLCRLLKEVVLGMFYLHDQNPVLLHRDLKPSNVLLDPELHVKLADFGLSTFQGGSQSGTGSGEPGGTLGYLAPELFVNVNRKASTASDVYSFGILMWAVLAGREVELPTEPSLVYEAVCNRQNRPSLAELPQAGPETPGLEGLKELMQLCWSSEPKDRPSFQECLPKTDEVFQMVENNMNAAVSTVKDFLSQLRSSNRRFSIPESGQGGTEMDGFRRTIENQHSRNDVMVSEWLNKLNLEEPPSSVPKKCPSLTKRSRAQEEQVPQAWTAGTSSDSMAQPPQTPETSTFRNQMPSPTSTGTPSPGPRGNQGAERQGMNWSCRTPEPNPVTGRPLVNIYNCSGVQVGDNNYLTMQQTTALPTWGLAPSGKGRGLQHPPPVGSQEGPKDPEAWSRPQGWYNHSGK

In patent US12583836B2 (Anaxis Pharma Pty Ltd, priority 2020, dated 2026):

Molecular target: T1, RIP3 (Homo sapiens, UniProt Q9Y572)
T1 construct: purchased DiscoverX (KINOMEscan service); host or cells: E. coli BL21-derived (T7 phage) or HEK293
Assay: KINOMEscan binding assay, RIP3
Details: equilibrium dissociation constant, class symbols

SMILES	Kd [µM]
CCS(=O)(=O)Nc1ccc(-c2n[nH]c(Nc3cccc(OC(F)(F)F)n3)c2C(N)=O)cc1OCc1ccc(F)cc1 [Compound 172, 3-(4-(ethylsulfonamido)-3-((4-fluorobenzyl)oxy)phenyl)-5-((6-(trifluoromethoxy)pyridine-2-yl)amino)-1H-pyrazole-4-carboxamide]	> 30
NC(=O)c1c(-c2ccc(NS(=O)(=O)CC(F)(F)F)cc2)n[nH]c1Nc1ccc(C(F)(F)F)cn1 [Compound 153, 3-(4-((2,2,2-trifluoroethyl)sulfonamido)phenyl)-5-((5-(trifluoromethyl)pyridine-2-yl)amino)-1H-pyrazole-4-carboxamide]	> 30
CCS(=O)(=O)Nc1ccc(-c2n[nH]c(Nc3cnccn3)c2C(N)=O)cc1OCc1ccccc1 [Compound 25, 3-(3-(benzyloxy)-4-(ethylsulfonamido)phenyl)-5-(pyrazin-2-ylamino)-1H-pyrazole-4-carboxamide]	> 30
CCS(=O)(=O)Nc1ccc(-c2n[nH]c(Nc3cccc(C(F)(F)F)n3)c2C(N)=O)cc1OCc1cccnc1 [Compound 33, 3-(4-(ethylsulfonamido)-3-(pyridin-3-ylmethoxy)phenyl)-5-((6-(trifluoromethyl)pyridin-2-yl)amino)-1H-pyrazole-4-carboxamide]	1 to 30
C[C@H](Oc1cc(-c2n[nH]c(Nc3cc(C(C)(C)C)on3)c2C(N)=O)ccc1NS(=O)(=O)C(F)F)c1ccc(F)cc1 [Compound 282, (S)-5-((5-(tert-butyl)isoxazol-3-yl)amino)-3-(4-((difluoromethyl)sulfonamido)-3-(1-(4-fluorophenyl)ethoxy)phenyl)-1H-pyrazole-4-carboxamide]	> 30
CCS(=O)(=O)Nc1ccc(-c2n[nH]c(Nc3cnccn3)c2C(N)=O)c(OCc2ccc(Cl)cc2)c1 [Compound 198, 3-(2-((4-chlorobenzyl)oxy)-4-(ethylsulfonamido)phenyl)-5-(pyrazin-2-ylamino)-1H-pyrazole-4-carboxamide]	> 30
NC(=O)c1c(-c2ccc(NS(=O)(=O)CC(F)(F)F)c(Oc3ccc(F)cc3)c2)n[nH]c1Nc1cccc(C(F)(F)F)n1 [Compound 148, 3-(3-(4-fluorophenoxy)-4-((2,2,2-trifluoroethyl)sulfonamido)phenyl)-5-((6-(trifluoromethyl)pyridine-2-yl)amino)-1H-pyrazole-4-carboxamide]	> 30
CCS(=O)(=O)Nc1ccc(-c2n[nH]c(Nc3cnc(C)cn3)c2C(N)=O)cc1OCc1ccc(F)cc1 [Compound 22, 3-(4-(ethylsulfonamido)-3-((4-fluorobenzyl)oxy)phenyl)-5-((5-methylpyrazin-2-yl)amino)-1H-pyrazole-4-carboxamide]	> 30
CCS(=O)(=O)Nc1ccc(-c2n[nH]c(Nc3cnccn3)c2C(N)=O)cc1OCC1CCCN(C)C1 (stereo not drawn) [Compound 187, 3-(4-(ethylsulfonamido)-3-((1-methylpiperidin-3-yl)methoxy)phenyl)-5-(pyrazin-2-ylamino)-1H-pyrazole-4-carboxamide]	> 30
CCS(=O)(=O)Nc1ccc(-c2n[nH]c(Nc3ccnc(C(F)(F)F)n3)c2C(N)=O)cc1OCc1ccc(F)cc1 [Compound 195, 3-(4-(ethylsulfonamido)-3-((4-fluorobenzyl)oxy)phenyl)-5-((2-(trifluoromethyl)pyrimidin-4-yl)amino)-1H-pyrazole-4-carboxamide]	> 30
Cc1nccc(Nc2[nH]nc(-c3ccc(NS(=O)(=O)C(F)F)c(O[C@@H](C)c4ccc(F)cc4)c3)c2C(N)=O)n1 [Compound 309, (S)-3-(4-((difluoromethyl)sulfonamido)-3-(1-(4-fluorophenyl)ethoxy)phenyl)-5-((2-methylpyrimidin-4-yl)amino)-1H-pyrazole-4-carboxamide]	> 30
C[C@H](Oc1cc(-c2n[nH]c(Nc3cnccn3)c2C(N)=O)ccc1NS(=O)(=O)C(F)F)c1ccc(F)cc1 [Compound 223, 3-[4-(difluoromethanesulfonamido)-3-[(1S)-1-(4-fluorophenyl)ethoxy]phenyl]-5-[(pyrazin-2-yl)amino]-1H-pyrazole-4-carboxamide]	> 30
C[C@H](Oc1cc(NS(=O)(=O)C(F)F)ccc1-c1n[nH]c(Nc2cnccn2)c1C(N)=O)c1ccc(F)cc1 [Compound 243, 3-[4-(difluoromethanesulfonamido)-2-[(1S)-1-(4-fluorophenyl)ethoxy]phenyl]-5-[(pyrazin-2-yl)amino]-1H-pyrazole-4-carboxamide]	> 30
CCS(=O)(=O)Nc1ccc(-c2n[nH]c(Nc3cnccn3)c2C(N)=O)cc1Oc1ccc(Cl)cc1 [Compound 185, 3-(3-(4-chlorophenoxy)-4-(ethylsulfonamido)phenyl)-5-(pyrazin-2-ylamino)-1H-pyrazole-4-carboxamide]	> 30
C[C@H](Oc1cc(-c2n[nH]c(Nc3cc(C(C)(C)F)on3)c2C(N)=O)ccc1NS(=O)(=O)C(F)F)c1ccc(F)cc1 [Compound 297]	> 30
Cc1cnc(Nc2[nH]nc(-c3ccc(NS(=O)(=O)CC(F)(F)F)c(OCc4ccc(F)cc4)c3)c2C(N)=O)cn1 [Compound 163, 3-(3-((4-fluorobenzyl)oxy)-4-((2,2,2-trifluoroethyl)sulfonamido)phenyl)-5-((5-methylpyrazin-2-yl)amino)-1H-pyrazole-4-carboxamide]	> 30
CCS(=O)(=O)Nc1ccc(-c2n[nH]c(Nc3cnccn3)c2C(N)=O)cc1Oc1cccc(F)c1 [Compound 204, 3-(4-(ethylsulfonamido)-3-(3-fluorophenoxy)phenyl)-5-(pyrazin-2-ylamino)-1H-pyrazole-4-carboxamide]	> 30
CCS(=O)(=O)Nc1ccc(-c2n[nH]c(Nc3cccnc3C(F)(F)F)c2C(N)=O)cc1OCc1ccc(F)cc1 [Compound 192, 3-(4-(ethylsulfonamido)-3-((4-fluorobenzyl)oxy)phenyl)-5-((2-(trifluoromethyl)pyridine-3-yl)amino)-1H-pyrazole-4-carboxamide]	> 30
CCS(=O)(=O)Nc1ccc(-c2n[nH]c(Nc3ccccn3)c2C(N)=O)cc1OCc1ccncc1 [Compound 27, 3-(4-(ethylsulfonamido)-3-(pyridin-4-ylmethoxy)phenyl)-5-(pyridin-2-ylamino)-1H-pyrazole-4-carboxamide]	> 30
NC(=O)c1c(-c2ccc(NS(=O)(=O)CC(F)(F)F)c(OCc3ccc(F)cc3)c2)n[nH]c1Nc1cnccn1 [Compound 170, 3-(3-((4-fluorobenzyl)oxy)-4-((2,2,2-trifluoroethyl)sulfonamido)phenyl)-5-(pyrazin-2-ylamino)-1H-pyrazole-4-carboxamide]	> 30
CCS(=O)(=O)Nc1ccc(-c2n[nH]c(Nc3cncc(C)n3)c2C(N)=O)cc1 [Compound 84, 3-(4-(ethylsulfonamido)phenyl)-5-((6-methylpyrazin-2-yl)amino)-1H-pyrazole carboxamide]	1 to 30
